Values quoted from earlier work, collected in patent US5175145A, “Treatment of diabetes mellitus with amylin agonists” (Amylin Pharmaceuticals, Inc., priority 1992, dated 1992).

Conditions: administered to rats

Substance: calcitonin gene related peptide (ACDTATCVTHRLAGLLSRSGGVVKNNFVPTNVGSKAF; Calcitonin gene-related peptide 1; UniProt P06881 83-119, looked up) [CGRP, peptide structurally similar to amylin (46% identity with human CGRP-2)]
- effects on blood pressure and blood catecholamine levels: exerts significant effects on blood pressure and blood catecholamine levels
